From PMC12010937, “Evaluation of FXR Activity in Pollutants Identified in Sewage Sludge and Subsequent in Vitro and in Vivo Characterization of Metabolic Effects of Triphenyl Phosphate” (Environmental Health Perspectives, 2025)

Biological target: T1, FXR (pCDNA3.1-hFXR, FXRE-luc) (Homo sapiens, UniProt Q96RI1)
T1 construct: host or cells: HEK 293T
T1 sequence (Q96RI1 1-486): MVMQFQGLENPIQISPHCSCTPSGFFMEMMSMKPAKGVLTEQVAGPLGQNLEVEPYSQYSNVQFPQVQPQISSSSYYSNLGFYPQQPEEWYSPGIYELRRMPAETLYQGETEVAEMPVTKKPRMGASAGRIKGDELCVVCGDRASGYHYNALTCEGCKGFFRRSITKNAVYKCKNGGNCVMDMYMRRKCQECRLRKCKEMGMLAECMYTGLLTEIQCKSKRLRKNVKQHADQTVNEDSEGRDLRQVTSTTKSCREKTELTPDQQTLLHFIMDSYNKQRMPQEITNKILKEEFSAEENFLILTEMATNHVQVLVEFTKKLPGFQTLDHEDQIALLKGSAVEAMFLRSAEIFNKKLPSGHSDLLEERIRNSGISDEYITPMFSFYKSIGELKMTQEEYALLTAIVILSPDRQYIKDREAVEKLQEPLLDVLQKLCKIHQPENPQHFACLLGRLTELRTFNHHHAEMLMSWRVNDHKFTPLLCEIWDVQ
Format: cell-based
Conditions: HEK 293T DLR assay

SMILES: C/C=C1\C(=O)C[C@H]2[C@@H]3CCC4=CC(=O)CC[C@]4(C)[C@H]3CC[C@]12C [GS, guggulsterone]
- Rate of FXR inhibition at the maximum exposure concentration: 76.75%
